Laboratory results as given in patent US9394291B2, “Benzoxazinone amides as mineralocorticoid receptor modulators” (AstraZeneca AB, priority 2014, dated 2016).

Amino acid sequences for entries named in this document (tags omitted). Residues count along the entry.
UniProt P08235, 729-984 limits assumed: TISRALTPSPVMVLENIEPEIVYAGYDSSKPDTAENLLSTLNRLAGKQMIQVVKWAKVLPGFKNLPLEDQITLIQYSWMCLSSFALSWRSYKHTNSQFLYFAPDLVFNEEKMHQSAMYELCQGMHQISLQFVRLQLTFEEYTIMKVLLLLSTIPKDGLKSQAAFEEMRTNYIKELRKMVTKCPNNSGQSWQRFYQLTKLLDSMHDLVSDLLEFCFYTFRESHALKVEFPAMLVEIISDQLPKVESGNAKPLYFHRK

Legend:
[1] = molecular target: T1, MR (UAS-MR-bla HEK293 cells) (Homo sapiens, UniProt P08235); experiment: cell-based; conditions: Test B2 IC50 (nM), aldosterone 1 nM
[2] = molecular target: T1, MR (UAS-MR-bla HEK293 cells); experiment: Mineralocorticoid Cellular Reporter Gene Assay, Test B1 (0.25 nM aldosterone); conditions: aldosterone 0.25 nM
human MR LBD [3] = molecular target: T2, human MR LBD (Homo sapiens (Human), UniProt P08235); experiment: Mineralocorticoid Binding, Test A1 (SPA beads, 3H-aldosterone displacement); conditions: displacement of 5 nM 3H-aldosterone, MBP-MR LBD/P23 lysate
human MR LBD [4] = molecular target: T2, human MR LBD; conditions: read-out: Test A2 IC50; displacement of 5 nM 3H-aldosterone, MBP-MR LBD/P23 lysate, Imaging beads

SMILES | IC50 [1] [nM] | IC50 [2] [nM] | pIC50 (human MR LBD [3]) | pIC50 (human MR LBD [4])
CNC(=O)C[C@@H]1COc2cc(Cl)ccc2N1C(=O)c1ccc2c(c1)NC(=O)CO2 [Example 6b, 2-{(3R)-7-Chloro-4-[(3-oxo-3,4-dihydro-2H-1,4-benzoxazin-6-yl)carbonyl]-3,4-dihydro-2H-1,4-benzoxazin-3-yl}-N-methylacetamide] | 1100 | 4100 |  | 
CNC(=O)CC1COc2ccccc2N1C(=O)c1ccc2c(c1)NC(=O)CO2 (single isomer, unassigned) [Example 2b, N-Methyl-2-{3S or 3R)-4-[(3-oxo-3,4-dihydro-2H-1,4-benzoxazin-6-yl)carbonyl]-3,4-dihydro-2H-1,4-benzoxazin-3-yl}acetamide] | 5300 |  |  | 
NC(=O)C[C@@H]1COc2cc(Cl)ccc2N1C(=O)c1ccc2c(c1)NC(=O)CO2 [Example 5b, 2-{(3R)-7-Chloro-4-[(3-oxo-3,4-dihydro-2H-1,4-benzoxazin-6-yl)carbonyl]-3,4-dihydro-2H-1,4-benzoxazin-3-yl}acetamide] |  | 10400 | 5.31 | 
CNC(=O)CC1COc2ccccc2N1C(=O)c1ccc2c(c1)NC(=O)CO2 (single isomer, unassigned) [Example 2a, N-Methyl-2-{3S or 3R)-4-[(3-oxo-3,4-dihydro-2H-1,4-benzoxazin-6-yl)carbonyl]-3,4-dihydro-2H-1,4-benzoxazin-3-yl}acetamide] | 140 | 680 | 6.64 | 
CNC(=O)C[C@H]1COc2cc(Cl)ccc2N1C(=O)c1ccc2c(c1)NC(=O)CO2 [Example 6a, 2-{(3S)-7-Chloro-4-[(3-oxo-3,4-dihydro-2H-1,4-benzoxazin-6-yl)carbonyl]-3,4-dihydro-2H-1,4-benzoxazin-3-yl}-N-methylacetamide] | 8.4 | 74 |  | 
CNC(=O)CC1COc2ccccc2N1C(=O)c1ccc2c(c1)NC(=O)CO2 (stereo not shown) [Example 2] | 300 |  |  | 5.74
CNC(=O)CC1COc2cc(Br)ccc2N1C(=O)c1ccc2c(c1)NC(=O)CO2 (stereo not shown) [Example 8, 2-{7-Bromo-4-[(3-oxo-3,4-dihydro-2H-1,4-benzoxazin-6-yl)carbonyl]-3,4-dihydro-2H-1,4-benzoxazin-3-yl}-N-methylacetamide] | 15 | 110 | 7.40 | 
NC(=O)C[C@H]1COc2cc(Cl)ccc2N1C(=O)c1ccc2c(c1)NC(=O)CO2 [Example 5a, 2-{(3S)-7-Chloro-4-[(3-oxo-3,4-dihydro-2H-1,4-benzoxazin-6-yl)carbonyl]-3,4-dihydro-2H-1,4-benzoxazin-3-yl}acetamide] |  | 56 | 7.80 | 
CNC(=O)C[C@H]1COc2cc(Br)ccc2N1C(=O)c1ccc2c(c1)NC(=O)CO2 [Example 8b, 2-{(3S)-7-Bromo-4-[(3-oxo-3,4-dihydro-2H-1,4-benzoxazin-6-yl)carbonyl]-3,4-dihydro-2H-1,4-benzoxazin-3-yl}-N-methylacetamide] | 21 | 48 | 8.00 | 
CNC(=O)C[C@@H]1COc2cc(Br)ccc2N1C(=O)c1ccc2c(c1)NC(=O)CO2 [Example 8a, 2-{(3R)-7-Bromo-4-[(3-oxo-3,4-dihydro-2H-1,4-benzoxazin-6-yl)carbonyl]-3,4-dihydro-2H-1,4-benzoxazin-3-yl}-N-methylacetamide] | 640 | 1800 | 5.80 | 
CNC(=O)CC1COc2cc(Cl)ccc2N1C(=O)c1ccc2c(c1)NC(=O)CO2 (stereo not shown) [Example 6, 2-{7-Chloro-4-[(3-oxo-3,4-dihydro-2H-1,4-benzoxazin-6-yl)carbonyl]-3,4-dihydro-2H-1,4-benzoxazin-3-yl}-N-methylacetamide] | 31 | 180 |  | 

pIC50: −log10 of the molar value. Like-named read-outs stand apart in the source and are kept apart here.
